Series [1] deals with T1, PTH/PTHrP receptors in human renal cortical membranes (RCM) (Homo sapiens, UniProt Q03431).
T1 sequence (Q03431 27-593): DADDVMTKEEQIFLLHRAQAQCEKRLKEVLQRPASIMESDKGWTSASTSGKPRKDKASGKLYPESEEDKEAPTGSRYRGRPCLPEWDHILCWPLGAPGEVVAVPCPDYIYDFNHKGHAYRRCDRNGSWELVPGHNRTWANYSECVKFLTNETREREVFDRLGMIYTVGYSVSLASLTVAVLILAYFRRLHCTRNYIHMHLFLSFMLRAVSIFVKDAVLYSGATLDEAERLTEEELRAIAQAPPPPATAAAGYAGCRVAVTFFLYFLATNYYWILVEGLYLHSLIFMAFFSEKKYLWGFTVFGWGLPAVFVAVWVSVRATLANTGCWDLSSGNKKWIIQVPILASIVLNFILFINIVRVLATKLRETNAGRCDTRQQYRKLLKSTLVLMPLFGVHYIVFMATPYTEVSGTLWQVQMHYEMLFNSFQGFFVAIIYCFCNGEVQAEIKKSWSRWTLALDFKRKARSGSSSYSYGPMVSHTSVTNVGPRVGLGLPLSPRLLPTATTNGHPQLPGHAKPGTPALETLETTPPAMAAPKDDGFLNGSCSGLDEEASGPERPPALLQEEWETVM
Briefly: Competition binding of 125I-(Tyr36)hPTHrP-(1-36)NH2 to human renal cortical membranes. The following applies: 30° C., 30 min, read-out: Binding (IC50) Kidney membranes. As for the experimental part: All steps were performed in the presence of the following protease inhibitors: aprotinin [10 Kallikrein inhibitor units (KIU/ml], pepstatin (5 μg/ml), leupeptin (45 μg/ml), and phenylmethanesulfanylfluoride (10 μg/ml). Normal human kidney cortex was from four separate nephrectomy specimens removed for localized transitional cell carcinoma, renal cell carcinoma, or benign cysts. Renal function in all individuals was normal as assessed by serum creatinine and pyelography. Membranes were pooled, aliquoted, and stored at −70° C. for later use.
Human RCM were added to a final concentration of 90 μg/ml. […] The incubation time of 30 min was used for subsequent equilibrium binding competition studies.
Statistical differences were assessed by paired and unpaired two-tailed Student's t test.

The target of series [2] is T2, PTH/PTHrP receptors on SaOS-2 intact cells (Homo sapiens, UniProt Q03431).
T2 sequence (Q03431 27-593): T1 sequence (Q03431 27-593)
The experiment in a line: Competition binding of 125I-(Tyr36)hPTHrP-(1-36)NH2 to SaOS-2 intact cells. The note with it: 15° C., 150 min.

Series [3] relates to patients with osteoporosis. The following applies: cited from earlier work.
For series [4] the following is noted: cited from earlier work.
Series [5] concerns rats. The note with it: daily administration to rats over a two-year period (Eli Lilly report to the FDA); cited from earlier work.
Series [6] relates to ovariectomized (OVX) rats. Briefly: Body weight, serum chemistries, kidney calcium and deaths in ovariectomized rats. The following applies: for Alkaline Phosphatase / Body Weight Gain / Kidney calcium content / Serum Calcium / Serum Creatinine / Serum Magnesium / Serum Phosphate / Serum Urea Nitrogen: 40 μg/kg/day s.c. once daily. How it is done:
All studies were performed using virus- and antibody-negative female Sprague-Dawley rats from Harlan Sprague-Dawley (Indianapolis, Ind.). All rats underwent sham ovariectomy or ovariectomy at 5 months of age. Studies began at six months of age, one month following ovariectomy or sham operation. Rats were maintained on a diet containing 0.5% calcium and 0.4% phosphorus. The light cycle was 12 hours.
The protocol employed is described in schematic form in Table IV. Animals were randomly assigned to 17 groups of 10 as described in the Table. […] For the peptide-treated animals, the peptide was administered daily, subcutaneously at a dose of 40 μg/kg/day, in the vehicle described above. For vehicle-treated animals, vehicle alone was administered in an identical fashion.
Serum and urine chemistries as described in Table XI were performed using standard autoanalyser methods (Boehringer-Mannheim-Hitachi, Indianapolis, Ind.). Kidney calcium content was determined following extraction of whole kidneys in 5% trichloroacetic acid, followed by calcium measurement by calcium analyzer (Calcette, Midfield, Mass.).

Series [7] concerns the target T3, PTH/PTHrP receptors in SaOS-2 membranes (Homo sapiens, UniProt Q03431).
T3 sequence (Q03431 27-593): T1 sequence (Q03431 27-593)
The experiment in a line: Competition binding of 125I-(Tyr36)hPTHrP-(1-36)NH2 to SaOS-2 membranes. The note with it: 30° C., 60 min.

Where two headings read alike, the source gives them in different places. Marks after values point to notes of the source that are not given here.

A word on the IC50: it is the concentration needed to halve the response being measured.

hPTHrP-(1-74): the IC50 was 9500 ± 3500 pM in series [1] and 12900 ± 1400 pM in series [2].
bovine (b)PTH-(1-34) [bPTH-(1-34)]: the IC50 in series [1] came to 390 ± 60 pM; in series [2] it was 1300 ± 100 pM.
hPTH-(1-34): the “incidence of hypercalcemia (serum calcium greater than […])” value in series [3] (20 microgram dose (Neer et al.)) is recorded as 11%. Further, in series [3] (40 microgram dose (Neer et al.)), the “incidence of hypercalcemia (serum calcium greater than […])” value was 28%. Besides, the “time of peak plasma levels” value in series [4] (following injection, reported in two studies) was 30 to 45 min. Also, the T1/2 entry in series [4] (reported for hPTH(1-34)) is “five to six”. In series [5], the tumor findings entry is listed as “development of osteogenic sarcomas”. The “treated animals that died during the study” value in series [6] (30 OVX rats per peptide, 40 μg/kg/day, six month study) is on record as 3%. Moreover, in series [6] (OVX rats, 30 days), the “Alkaline Phosphatase” value was found to be 83 ± 3 IU/L, the “Body Weight Gain” value amounted to 2.2 ± 1.3 g, the Kidney calcium content came out at 0.25 ± 0.02 mg Ca/gm wet wt and the “Serum Calcium” value is on record as 10.7 ± 0.1^a mg/dL. Further, in series [6] (OVX rats, 30 days), the “Serum Creatinine” value is given as 0.80 ± 0.01 mg/dL, the “Serum Magnesium” value turned out to be 2.89 ± 0.06 mg/dL, the “Serum Phosphate” value was 6.5 ± 0.2^ac mg/dL and the “Serum Urea Nitrogen” value is reported as 20.1 ± 0.8^ac mg/dL. Moreover, in series [6] (OVX rats, 90 days), the “Alkaline Phosphatase” value is on record as 102 ± 6^c IU/L, the “Body Weight Gain” value was determined as 30.6 ± 4.8 g, the Kidney calcium content was 0.36 ± 0.06^ac mg Ca/gm wet wt and the “Serum Calcium” value was 10.7 ± 0.1^ac mg/dL. For the same substance, in series [6] (OVX rats, 90 days), the “Serum Creatinine” value is recorded as 0.78 ± 0.02 mg/dL, the “Serum Magnesium” value is 2.70 ± 0.03 mg/dL, the “Serum Phosphate” value is 5.4 ± 0.2^c mg/dL and the “Serum Urea Nitrogen” value is recorded as 22.1 ± 1.2 mg/dL. For the same substance, in series [6] (OVX rats, 180 days), the “Body Weight Gain” value was found to be 41.4 ± 16.2 g, the Kidney calcium content is on record as 0.24 ± 0.02^a mg Ca/gm wet wt, the “Serum Calcium” value is reported as 10.9 ± 0.2^a mg/dL and the “Serum Creatinine” value was determined as 0.75 ± 0.02 mg/dL. In addition, in series [6] (OVX rats, 180 days), the “Serum Magnesium” value is given as 2.80 ± 0.07^c mg/dL, the “Serum Phosphate” value is 6.0 ± 0.3^c mg/dL and the “Serum Urea Nitrogen” value stood at 19.8 ± 0.8 mg/dL. Also, the “mean serum calcium, in words” value in series [6] (OVX rats, throughout the six month study) is “remained normal”.
For the substance rat (r)PTH-(1-34) [rPTH-(1-34)], the 50% inhibitory concentration (IC50) in series [1] is 350 ± 150 pM; in series [7], 560 ± 60 pM; in series [2], 900 ± 200 pM.

The values are drawn from patent publication US7384912B2, “Treatment of bone disorders with skeletal anabolic drugs” (Osteotrophin, LLC, priority 2002, dated 2008).
